Data as given in PubChem BioAssay AID720711 (National Center for Advancing Translational Sciences (NCATS), 2013).
The entries are a selection whose mix differs from that of the whole data set. Activity calls are given as the source filed them. Calls come from the whole dose curve; as a rule, active = well fitted activation curve with a large enough effect; inconclusive = small, poorly fitted or top-dose-only effect; inactive = no such curve, though single readings can be large or run the other way.

The chains behind the UniProt entries cited, without tags or fusion partners.
UniProt Q8WZA2, whole entry: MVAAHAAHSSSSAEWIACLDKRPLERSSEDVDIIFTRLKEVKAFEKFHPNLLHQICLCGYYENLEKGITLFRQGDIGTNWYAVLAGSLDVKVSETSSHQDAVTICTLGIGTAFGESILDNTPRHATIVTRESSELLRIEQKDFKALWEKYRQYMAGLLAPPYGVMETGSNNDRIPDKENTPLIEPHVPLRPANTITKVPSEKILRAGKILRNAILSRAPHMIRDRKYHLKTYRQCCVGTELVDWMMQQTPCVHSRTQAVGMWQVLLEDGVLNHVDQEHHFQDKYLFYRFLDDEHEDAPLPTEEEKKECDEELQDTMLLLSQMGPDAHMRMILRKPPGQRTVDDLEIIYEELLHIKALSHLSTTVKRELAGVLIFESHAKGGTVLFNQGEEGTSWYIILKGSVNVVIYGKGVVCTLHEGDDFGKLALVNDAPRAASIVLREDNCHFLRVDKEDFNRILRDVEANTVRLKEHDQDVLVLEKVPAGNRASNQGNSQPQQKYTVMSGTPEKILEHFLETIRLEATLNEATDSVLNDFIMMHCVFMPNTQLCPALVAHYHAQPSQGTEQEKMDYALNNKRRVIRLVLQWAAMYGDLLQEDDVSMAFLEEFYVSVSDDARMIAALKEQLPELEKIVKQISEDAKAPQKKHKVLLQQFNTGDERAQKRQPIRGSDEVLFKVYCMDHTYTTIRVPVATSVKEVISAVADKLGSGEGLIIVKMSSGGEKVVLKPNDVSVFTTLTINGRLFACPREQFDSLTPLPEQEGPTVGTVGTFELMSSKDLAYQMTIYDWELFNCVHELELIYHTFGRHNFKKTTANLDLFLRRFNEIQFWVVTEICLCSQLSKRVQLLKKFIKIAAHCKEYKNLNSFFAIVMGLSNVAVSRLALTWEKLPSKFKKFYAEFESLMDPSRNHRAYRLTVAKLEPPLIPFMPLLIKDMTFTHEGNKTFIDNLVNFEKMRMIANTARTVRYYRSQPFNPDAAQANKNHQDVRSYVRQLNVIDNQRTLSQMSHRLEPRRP

These compounds were tested against Rap guanine nucleotide exchange factor 4 (Homo sapiens) (UniProt Q8WZA2) (assay: qHTS for Agonist of cAMP-regulated guanine nucleotide exchange factor 4 (EPAC2): primary screen). Settings: biochemical qHTS, 100% = 6.5 mM cAMP response; at 154 µM (top of the series).
From the text: In multi-cellular eukaryotic organisms, the effects of cAMP are transduced by two ubiquitously-expressed intracellular cAMP receptors, the classic protein kinase A/cAMP-dependent protein kinase (PKA/cAPK) and the more recently discovered exchange protein directly activated by cAMP/cAMP-regulated guanine nucleotide exchange factor (EPAC/cAMP-GEF). Both PKA and EPAC are ubiquitously expressed in all tissues, and an increase in intracellular cAMP levels will lead to the activation of both PKA and EPAC. Therefore, careful dissections of the individual role and relative contribution of EPAC and PKA within the overall cAMP signaling in various model systems are critical for further elucidating the mechanism of cAMP signaling. To date no EPAC-specific antagonists and agonist, as well as isoform-specific agonists have been reported, and developing EPAC-specific pharmacological probes to determine the physiological functions that EPAC play in the overall cAMP-mediated signaling remains a major challenge within the research field. Furthermore, identified regulators of EPAC may lead to new mechanism-based therapeutic strategies specifically targeting the EPAC / cAMP-signaling components as EPAC has been implicated to play important roles in major human pathological conditions such as diabetes, heart disease, and cancer.
This qHTS will be used to screen the Molecular Libraries Small Molecule Repository (MLSMR) as a concentration-titration series using the NCGC unique quantitative screening (qHTS) platform to find activators for EPAC2. In addition, this assay will also be used as a counterscreen for the EPAC1 qHTS. This fluorescent based assay is developed and validated for EPAC2 that measures exchange using EPAC effector Rap1 complex with BODIPY-GDP, a GDP analog with a tethered fluorophores. Activators are identified by monitoring the change in fluorescence signal as the exchanged free BODIPY-GDP has a reduced fluorescence compared to Rap1-bound BODIPY-GDP. […] in signal (activation) is the desired outcome for the EPAC2 agonist while no activity in this assay is desired for the EPAC1 agonist counterscreen.
[1] de Rooij, J., Zwartkruis, F. J., Verheijen, M. H., Cool, R. H., Nijman, S. M., Wittinghofer, A., and Bos, J.L. (1998) Nature 396, 474-477
[2] Kawasaki, H., Springett, G. M., Mochizuki, N., Toki, S., Nakaya, M., Matsuda, M., Housman, D. E., and Graybiel, A. M. (1998) Science 282, 2275-2279
NIH Chemical Genomics Center [NCGC]
NIH Molecular Libraries Probe Centers Network [MLPCN]
Assay Submitter (PI): Xiaodong Cheng, The University of Texas, Medical Branch
Briefly, three uL of reagents (100 nM EPAC2, 250 nM RAP1B-BODIPY-GDP, 50 uM GDP) were dispensed into a 1536-well Greiner black solid-bottom medium binding assay plate. Controls and test compounds (23 nL) were transferred to the plate via a Kalypsys pin tool equipped with a 1536-pin array. The plates were centrifuged at 1,000 rpm for 15 seconds followed by 5 minute incubation at room temperature. The assay plates were read at 5 minute intervals for 30 minutes in the ViewLux plate reader using 480nm excitation and 540nm emission filters. The results were normalized to the agonist positive control of 6.5 mM cAMP.
Note: nearly all actives have a fitted effect of over 50% in size.

**Q.** `COc1cccc(C(c2nnnn2C2CCCCC2)N2CCC(n3c(=O)[nH]c4ccccc43)CC2)c1OC` (stereo unspecified) was tested. Which activation did it give?
**A.** Its activation is inactive: 4.89%.

**Q.** With `CC(=O)N(c1ccccc1)C1CCNCC1` as the compound, how does the activation read?
**A.** Its activation is inactive: 4.43%.

**Q.** With `O=c1[nH]c2ccccc2n1C1CCN(C(c2ccnc3ccccc23)c2nnnn2C2CCCCC2)CC1` (stereo unspecified) as the compound, how does the activation read?
**A.** The activation was inactive: 2.81%.

**Q.** How did the activation turn out when `CC(C)(C)n1nnnc1C(c1cccc2ccccc12)N1CCC(n2c(=O)[nH]c3ccccc32)CC1` (stereo unspecified) was run?
**A.** The activation was inactive: 11.3%.

**Q.** How did the activation turn out when `CN(C)C1(CNC(=O)c2cccc(C#N)c2)CCCCC1` was run?
**A.** Its activation is inactive: -6.81%.

**Q.** For `CCCN1CCC(Nc2cc(OC)cc(OC)c2)CC1`, which activation is on record?
**A.** Its activation is inactive: 1.58%.

**Q.** How did the activation turn out when `O=c1[nH]c2ccccc2n1C1CCN(C(c2ccccc2)c2nnnn2C2CCCC2)CC1` (stereo unspecified) was run?
**A.** Its activation is inactive: 12.7%.

**Q.** With `Cc1cc(N(CCCl)CCCl)ccc1C=O` as the compound, how does the activation read?
**A.** The activation was inactive: 2.49%.

**Q.** For `c1ccc(CN2CCC(Nc3ccccc3)CC2)cc1`, which activation is on record?
**A.** Its activation is inactive: -0.693%.

**Q.** Which activation does the source give for `CCOC(=O)C(CC)C1=NC(C)(C)Cc2ccccc21.O=[N+]([O-])c1cc([N+](=O)[O-])c(O)c([N+](=O)[O-])c1` (stereo unspecified) here?
**A.** Its activation is inactive: 5.16%.

**Q.** With `N#Cc1ccc(C(=O)NCC2(N3CCCCC3)CCCCC2)cc1` as the compound, how does the activation read?
**A.** The activation was inactive: 7.06%.

**Q.** With `CC(C)(C)OC(=O)N1CCC(N(C(=O)c2ccccc2)c2ccc(Cl)cc2)CC1` as the compound, how does the activation read?
**A.** Its activation is inactive: 6.17%.

**Q.** How did the activation turn out when `O=C(O)c1cccc(Nc2c([N+](=O)[O-])cc([N+](=O)[O-])cc2[N+](=O)[O-])c1` was run?
**A.** Its activation is inactive: -2.91%.

**Q.** `O=c1[nH]c2ccccc2n1C1CCN(C(c2cccs2)c2nnnn2C2CCCC2)CC1` (stereo unspecified) was tested. Which activation did it give?
**A.** The activation was inactive: 7.29%.

**Q.** For `CCc1cc(C(=O)NCC2(N3CCCCC3)CCCCC2)sc1C`, which activation is on record?
**A.** Its activation is inactive: -12.5%.

**Q.** How did the activation turn out when `O=C(OC1CN2CCC1CC2)C1c2ccccc2C=Cc2ccccc21` (stereo unspecified) was run?
**A.** The activation was inactive: 6.31%.

**Q.** `CCCCn1nnnc1C(c1cccc(OC)c1OC)N1CCC(n2c(=O)[nH]c3ccccc32)CC1` (stereo unspecified) was tested. Which activation did it give?
**A.** The activation was inactive: 16%.

**Q.** Which activation does the source give for `CCOC(=O)N1CCC(Nc2ccc(C)cc2)CC1` here?
**A.** The activation was inactive: 2.2%.

**Q.** `COc1cccc(C(c2nnnn2C(C)(C)C)N2CCC(n3c(=O)[nH]c4ccccc43)CC2)c1OC` (stereo unspecified) was tested. Which activation did it give?
**A.** Its activation is inactive: 2.48%.

**Q.** `N/C(=N\O)c1c(N)no[n+]1[O-]` was tested. Which activation did it give?
**A.** The activation was inactive: -0.0719%.

**Q.** How did the activation turn out when `O=c1[nH]c2ccccc2n1C1CCN(C(c2cccs2)c2nnnn2C2CCCCC2)CC1` (stereo unspecified) was run?
**A.** Its activation is inactive: 9.27%.

**Q.** `O=c1[nH]c2ccccc2n1C1CCN(C(c2ccnc3ccccc23)c2nnnn2C2CCCC2)CC1` (stereo unspecified) was tested. Which activation did it give?
**A.** The activation was inactive: 15.7%.

**Q.** How did the activation turn out when `COc1ccc(C(=O)NCC2(N3CCOCC3)CCCCC2)cc1OC` was run?
**A.** Its activation is inactive: 3.54%.

**Q.** For `COc1cc(C(=O)NCC2(N3CCOCC3)CCCCC2)cc(OC)c1C`, which activation is on record?
**A.** Its activation is inactive: -3.96%.

**Q.** Which activation does the source give for `CCCCn1nnnc1C(c1ccccc1)N1CCC(n2c(=O)[nH]c3ccccc32)CC1` (stereo unspecified) here?
**A.** The activation was inactive: 7.93%.

**Q.** Which activation does the source give for `O=C(NCC1(N2CCOCC2)CCCCC1)c1cc(Br)ccc1Cl` here?
**A.** Its activation is inactive: -1.24%.
